Test: 14-day treatment in rats: body weight gain, fat mass (MR relaxometry), food intake
Details: 14 days, olanzapine 2 mg/kg p.o.

SMILES: Cc1cc2c(s1)Nc1ccccc1N=C2N1CCN(C)CC1 [olanzapine, reference compound]
- fat mass content: increase

— patent US9132136B2, “Pharmaceutical combination” (HOFFMANN-LA ROCHE INC., priority 2010, dated 2015)
